Laboratory results as given in patent publication US20080051457A1, “Optically Active Phthalamide Derivative, Agricultural or Horticultural Insecticide, and Method of Using the Same” (priority 2004, published 2008).

Experiment: logP (pH2.3), physical properties of Tables 1 to 3
Assay type: physicochemical
Conditions: Table 1
From the text: Representative compounds as optically active phthalamide compounds represented by the formula (I) of the present invention, which can be produced in the same manner as in examples, are shown in Tables 1 to 3. However, the present invention is not limited to these compounds. In the tables, the term “physical properties” means a melting point or logp. The symbol “Me” represents a methyl group, “Et” represents an ethyl group, “Pr” represents a propyl group, “-n” represents normal, and “-i” represents iso.

Row | Physical properties: logP | SMILES
1 | 3.28 | CCS(=O)(=O)C[C@H](C)NC(=O)c1c(I)cccc1C(=O)Nc1ccc(C(F)(F)C(F)(F)F)c(Cl)c1C [Compound 1-113]
2 | 3.10 | Cc1c(NC(=O)c2cccc(I)c2C(=O)N[C@@H](C)CS(C)(=O)=O)ccc(C(F)(F)C(F)(F)F)c1Cl [Compound 1-146]
